Screens as filed in PubChem.
A549 viability: counter-screen for Nrf2 inhibitors: cytotoxicity in A549 cells; 390,000 compounds, 0.16% hits; Potency, µM (highest dose often 46 µM), inactives show at the top dose activity change, negative = cytotoxicity, actives largely listed as inhibitors; A549 ARE-Fluc cells, CellTiter-Fluor viability, 18-24 h; AID 504648; note: potency is the fitted concentration of half-maximal effect; % is set by controls: 0 for no effect and ±100 for the full control effect
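A549 ARE_Fluc cells in 5% FBS OPTI-MEM were exposed to compounds in concentration-response for 18-24 h at 37 deg C. Viability was read by CellTiter-Fluor fluorescence (Ex 405/Em 525) after 30 min, before the luciferase read.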
Glioma ERSR ind: induces the endoplasmic reticulum stress response in human glioma cells; 420,000 compounds, 0.02% hits; Potency, µM, for inactives: at the highest dose activation, hits mostly activators; U87-MG GRP78 promoter luciferase reporter, 16 h; note: potency is the fitted concentration of half-maximal effect; series mostly up to about 76 µM; % of control where 0% means no effect; nearly all actives have a fitted effect of over 35% in size
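Stably transfected U87-MG human glioma cells carrying a GRP78-based luminescent sensor were seeded at 1000 cells/well, pin-dosed with compounds and incubated 16 h. Luciferase reagent was then added, and end-point luminescence was read after 10 min at room temperature.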
Nrf2 block: blocks Nrf2 signaling | A549 ARE-Fluc reporter, luciferase luminescence, 18-24 h | Potency, µM (titrated, usually from 46 µM), without a hit: top-dose activity change, negative = inhibition, usual class: inhibitors | 360,000 compounds, 2.1% hits | AID 504444; note: potency is the fitted concentration of half-maximal effect; % is set by controls: 0 for no effect and ±100 for the full control effect; nearly all actives have a fitted effect of over 60% in size
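Nrf2 activity is the BugLite luminescence, read 15 min after reagent at room temperature, following CellTiter-Fluor cytotoxicity readout (30 min, 37C). Compound titrations were applied for 18-24 h to 5000 A549 ARE_Fluc cells/well in 5% FBS OPTI-MEM.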
miR-21 reporter: raises the signal of a miR-21 reporter; Potency, µM (doses to about 38.3 µM), inactives show top-dose reporter change, positive = more light; HeLa miR-21 FLuc reporter, luciferase, 48 h; AID 2288; 340,000 tested, under 10 active; active = well fitted rising curve with a large enough effect; inconclusive = small, poorly fitted or top-dose-only effect; inactive = no such curve, though single readings can be large or run the other way;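 further: % of control where 0% means no effect; miR-21 action dims this reporter so a rising signal means less miR-21 action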
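HeLa cells stably expressing CMV-driven firefly luciferase with a downstream miR-21 binding sequence, endogenously expressing miR-21, were treated with titrations (up to about 40uM final) for 48 hours at 37 degree Celsius. Luciferase luminescence was read after lysis.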
Mito fusion act: mitochondrial division inhibition or fusion activation. AID 485298. 320,000 compounds, 0.23% hits. S. cerevisiae fusion-defective mutant growth rescue, CellTiterGlo 48 h. Potency, µM (series often up to 46.1 µM), for the others: at the top dose growth rescue (activation), hits mostly activators; note: potency is the fitted concentration of half-maximal effect; % of control where 0% means no effect; nearly all actives have a fitted effect of over 45% in size
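Read-out: ATP-based luminescence (CellTiterGlo, 10 min ambient) reporting growth of fusion-defective ts yeast after 48 hours at 37C on glycerol/ethanol YPEG medium in the presence of compound.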
Nrf2 ARE act: activates Nrf2 signaling. Potency, µM (highest dose often 46.1 µM), for inactives: at the highest dose activation, actives largely listed as activators. AREc32 ARE-luciferase reporter (MCF7-derived line), luminescence, 24 h. 410,000 compounds, 0.31% hits. AID 624171; note: potency is the fitted concentration of half-maximal effect; % of control where 0% means no effect; nearly all actives have a fitted effect of over 65% in size
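Luciferase luminescence (Steady-Glo, 30 min at room temperature) served as the read-out of ARE activation in AREc32 cells treated with compounds for 24 hr at 37 deg C.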
Starred values were filed as active, the others as inactive; ? = inconclusive; nt = no result given; ! = not active in a repeat. The list is not random: actives were taken first. Their share in the collection is about 2.3%. Unless noted, calls come from the whole dose curve; as a rule, active = well fitted curve in the direction sought with a large enough effect; inconclusive = small, poorly fitted or top-dose-only effect, or another doubt; inactive = no such curve, though single readings can be large; an effect the other way counts as inactive or inconclusive.

1: COc1cc(OC)c(C(=O)C=Cc2ccc(OC)c(OC)c2)c(OC)c1
2: COc1ccc2nc(N3CCCCC3)c(/C=C3\SC(=S)NC3=O)cc2c1
3: O=C1NC(=S)S/C1=C\c1cc2ccccc2nc1N1CCCCC1
4: CCc1ccc(OCC2c3cc(OC)c(OC)cc3CCN2C(=S)NC)cc1 (stereo not drawn)
5: CN1CCN(S(=O)(=O)c2cc(Cl)c(Cl)cc2Cl)CC1

| Screen / compound no. | 1 | 2 | 3 | 4 | 5 |
| --- | --- | --- | --- | --- | --- |
| Mito fusion act | nt | -12% | 6% | 1% | 7% |
| A549 viability | -22% | -11% | -28% | -28% | 4% |
| miR-21 reporter | nt | -3% | -6% | 8% | 0% |
| Glioma ERSR ind | -8% | 1% | -1% | -2% | -5% |
| Nrf2 ARE act | 11µM* | 0% | -1% | 9% | 0% |
| Nrf2 block | ? | -3% | 21µM* | 18µM* | 1% |

6: O=[N+]([O-])c1cccc(-c2nnc(-c3ccccc3F)o2)c1
7: Nc1ccc(C#Cc2ccc3c(=O)c4ccccc4oc3c2)cc1
8: COc1cc2oc3ccc(C#Cc4ccc(N)cc4)cc3c(=O)c2cc1OC
9: COc1cc2oc3cc(C#Cc4ccc(N)cc4)ccc3c(=O)c2cc1OC
10: O=C(CCS(=O)(=O)c1cc2c(cc1Cl)NC(=O)CO2)NCc1ccccc1Cl

| Screen / compound no. | 6 | 7 | 8 | 9 | 10 |
| --- | --- | --- | --- | --- | --- |
| Mito fusion act | 2% | 0% | nt | nt | nt |
| A549 viability | -3% | -8% | -12% | ? | 6% |
| miR-21 reporter | -51% | -43% | nt | nt | 0% |
| Glioma ERSR ind | -2% | -3% | 4% | -8% | -4% |
| Nrf2 ARE act | 13µM* | 3% | 5% | 0% | -1% |
| Nrf2 block | ? | 10µM* | 15µM* | 16µM* | ? |

11: Cc1cc(C)cc(NC(=O)Nc2nnc(N(C)C3CCCCC3)s2)c1
12: Cc1cc(NC(=O)Nc2nnc(N(C)C3CCCCC3)s2)ccc1Br
13: CCOC(=O)c1c(-c2ccc(C)cc2)csc1NC(=O)CCN1CC(C)OC(C)C1 (stereo not drawn)
14: CCOC(=O)c1c(-c2ccc(C)o2)csc1NC(=O)CSc1nncs1
15: CCOC(=O)c1c(-c2ccc(C)o2)csc1NC(=O)CN(C)CC(=O)Nc1ccc(C)cc1

| Screen / compound no. | 11 | 12 | 13 | 14 | 15 |
| --- | --- | --- | --- | --- | --- |
| Mito fusion act | nt | nt | 13µM* | 17% | -1% |
| A549 viability | 8% | -11% | 29% | 2% | -27% |
| miR-21 reporter | -4% | 25% | -8% | -11% | 0% |
| Glioma ERSR ind | 1% | -1% | -2% | 0% | -7% |
| Nrf2 ARE act | 0% | 0% | ? | 19% | -1% |
| Nrf2 block | 12% | 26µM* | -23% | 21µM* | 16µM* |

Molecules shown so far that contain a halogen, in the order listed:
5: CN1CCN(S(=O)(=O)c2cc(Cl)c(Cl)cc2Cl)CC1
6: O=[N+]([O-])c1cccc(-c2nnc(-c3ccccc3F)o2)c1
10: O=C(CCS(=O)(=O)c1cc2c(cc1Cl)NC(=O)CO2)NCc1ccccc1Cl
12: Cc1cc(NC(=O)Nc2nnc(N(C)C3CCCCC3)s2)ccc1Br

| Screen / compound no. | 5 | 6 | 10 | 12 |
| --- | --- | --- | --- | --- |
| Mito fusion act | 7% | 2% | nt | nt |
| A549 viability | 4% | -3% | 6% | -11% |
| miR-21 reporter | 0% | -51% | 0% | 25% |
| Glioma ERSR ind | -5% | -2% | -4% | -1% |
| Nrf2 ARE act | 0% | 13µM* | -1% | 0% |
| Nrf2 block | 1% | ? | ? | 26µM* |

Additional entries follow:
16: O=C(Nc1ccc(Nc2ccncc2)cc1)c1ccc([N+](=O)[O-])cc1
17: O=C(Nc1cccnc1)c1ccc(-c2ccccc2)cc1
18: O=C(Nc1ccc(Oc2cccnc2)cc1)c1ccc([N+](=O)[O-])cc1
19: O=C(Nc1ccc([N+](=O)[O-])cc1)c1ccc(Cn2cc([N+](=O)[O-])cn2)cc1
20: O=C(Nc1ccncc1)c1ccc(-c2ccccc2)cc1

| Screen / compound no. | 16 | 17 | 18 | 19 | 20 |
| --- | --- | --- | --- | --- | --- |
| Mito fusion act | 14% | -7% | -7% | 6% | -6% |
| A549 viability | 1% | -2% | 2% | -14% | 0% |
| miR-21 reporter | -2% | -58% | 0% | 22% | -17% |
| Glioma ERSR ind | -10% | 6% | -1% | -6% | 3% |
| Nrf2 ARE act | 6% | 5% | 0% | 0% | 3% |
| Nrf2 block | 18µM* | 3% | 15% | 18µM* | 2.3µM* |

21: Cc1cc(=O)[nH]c2nnc(SCc3ccc(Cl)cc3)n12
22: Cc1cccc(C(=O)NCC(=O)NCCSc2ccc(Br)cc2)c1
23: N#Cc1ccc(C(=O)Nc2ccn(-c3ccccc3)n2)cc1
24: Cc1ccc(NC(=O)NC(=O)CN2CCN(c3ccc(O)cc3)CC2)c(C)c1
25: CC(C)(C)NC(=O)NC(=O)CN1CCN(c2ccc(O)cc2)CC1

| Screen / compound no. | 21 | 22 | 23 | 24 | 25 |
| --- | --- | --- | --- | --- | --- |
| Mito fusion act | nt | 2% | -2% | 16% | 0% |
| A549 viability | -3% | -3% | -18% | -14% | -21% |
| miR-21 reporter | 0% | nt | 13% | 4% | 18% |
| Glioma ERSR ind | -4% | -1% | -3% | -6% | -4% |
| Nrf2 ARE act | 2% | 1% | 3% | 0% | 0% |
| Nrf2 block | nt | 12% | 23µM* | 23µM* | 21µM* |

26: Cc1ccc(NC(=O)NC(=O)CN2CCC(C(N)=O)CC2)c(C)c1
27: O=C(Cn1c(O)c(/C=C2\C=Nc3ccc(Br)cc32)sc1=O)N1CCCC1
28: O=c1[nH]c(O)c(/C=C2\C=Nc3ccc(Br)cc32)[nH]1
29: O=C(O)c1ccc(Cl)c(S(=O)(=O)NC(Cc2c[nH]c3ccccc23)C(=O)O)c1 (stereo not drawn)
30: CN(C)S(=O)(=O)c1ccc(NS(=O)(=O)/C=C/c2ccccc2)cc1

| Screen / compound no. | 26 | 27 | 28 | 29 | 30 |
| --- | --- | --- | --- | --- | --- |
| Mito fusion act | -2% | 7% | -3% | -4% | 0% |
| A549 viability | 5% | ? | -6% | 10% | -1% |
| miR-21 reporter | nt | -4% | -15% | 1% | -2% |
| Glioma ERSR ind | 1% | -4% | 8% | 2% | -2% |
| Nrf2 ARE act | 3% | 0% | 10µM* | -1% | 0% |
| Nrf2 block | ? | ? | 19% | 18% | 5% |

31: COc1cc(C(=O)Oc2cccc(Nc3ncnc4ccccc34)c2)cc(OC)c1OC
32: COc1ccc(CCNS(=O)(=O)c2ccc3c(c2)c(=O)n(C)c(=O)n3C)cc1OC
33: C[C@@H]1CN([C@@H](C)CO)S(=O)(=O)c2ccc(Br)cc2O[C@@H]1CN(C)Cc1cccnc1
34: Cc1nc2ccccc2c2oc(C(=O)Nc3ccc(C(C)C)cc3)cc12
35: Cc1nc2ccccc2c2oc(C(=O)Nc3ccc4c(c3)OCCO4)cc12

| Screen / compound no. | 31 | 32 | 33 | 34 | 35 |
| --- | --- | --- | --- | --- | --- |
| Mito fusion act | -5% | nt | nt | -7% | -1% |
| A549 viability | -17% | 2% | nt | ? | -29% |
| miR-21 reporter | 24% | 0% | nt | 21% | -2% |
| Glioma ERSR ind | -3% | -4% | -5% | -3% | 0% |
| Nrf2 ARE act | -1% | -1% | 0% | -1% | 1% |
| Nrf2 block | 15µM* | 3% | nt | 15µM* | 23µM* |

36: COc1cc(NC(=O)c2cc3c(C)nc4ccccc4c3o2)cc(OC)c1OC
37: CCCc1c(-c2ccc(O)cc2)nn(-c2ccc(O)cc2)c1-c1ccc(O)cc1
38: COc1ccc(N2CCN(S(=O)(=O)c3ccc(Br)s3)CC2)cc1
39: COc1ccc(N2CCN(C(=O)CNS(=O)(=O)c3ccc(Br)s3)CC2)cc1
40: CCN(CC)CCNc1cccc2sc3ccccc3c(=O)c12

| Screen / compound no. | 36 | 37 | 38 | 39 | 40 |
| --- | --- | --- | --- | --- | --- |
| Mito fusion act | 2% | 16µM*! | 4.5µM* | -6% | nt |
| A549 viability | 3% | -7% | -8% | 2% | nt |
| miR-21 reporter | 9% | 13% | -6% | 0% | nt |
| Glioma ERSR ind | -1% | -3% | -3% | 0% | -4% |
| Nrf2 ARE act | 3% | 11% | 0% | 2% | 3% |
| Nrf2 block | -21% | -7% | -30% | -24% | nt |

41: CCN(CC)CCNc1ccc(CO)c2sc3ccccc3c(=O)c12
42: CCCCNc1c(C(=O)OCC)c(C)nc2c1cnn2CC
43: O=[N+]([O-])c1ccc(NN=Cc2ccco2)nc1
44: O=[N+]([O-])c1ccc(N/N=C\c2cccnc2)nc1
45: O=C1CCCN1c1ccc(S(=O)(=O)Nc2cccnc2)cc1
46: Cc1ccc(NS(=O)(=O)c2ccc3c(c2)CCCC(=O)N3)cc1C
47: Cc1ccc(NS(=O)(=O)c2ccc3c(c2)CCC(C)(C)O3)cc1C

| Screen / compound no. | 41 | 42 | 43 | 44 | 45 | 46 | 47 |
| --- | --- | --- | --- | --- | --- | --- | --- |
| Mito fusion act | 3% | 23µM* | nt | -2% | 1% | nt | nt |
| A549 viability | 16µM* | -2% | ? | -10% | 0% | 6% | 2% |
| miR-21 reporter | ? | nt | nt | 4% | -4% | nt | nt |
| Glioma ERSR ind | 12% | -5% | 4% | -2% | 2% | nt | nt |
| Nrf2 ARE act | 0% | 5% | 0.89µM* | 5% | -1% | nt | nt |
| Nrf2 block | 6.5µM* | -13% | ? | ? | -7% | ? | 23µM* |
